Where two headings read alike, the source gives them in different places.
How the values were obtained:
[1] = biological target: T1, human kappa opioid receptor (Homo sapiens, UniProt P41145); assay: biochemical; assay type: binding
T1 construct: expressed in transfected cells; host or cells: Chinese hamster ovary cells (CHO-hKOR), membranes

Sequences of proteins named here, by UniProt entry; tags and fusion partners are left off. A change or cut given only in a name is not applied to a line headed by its entry.
UniProt P41145: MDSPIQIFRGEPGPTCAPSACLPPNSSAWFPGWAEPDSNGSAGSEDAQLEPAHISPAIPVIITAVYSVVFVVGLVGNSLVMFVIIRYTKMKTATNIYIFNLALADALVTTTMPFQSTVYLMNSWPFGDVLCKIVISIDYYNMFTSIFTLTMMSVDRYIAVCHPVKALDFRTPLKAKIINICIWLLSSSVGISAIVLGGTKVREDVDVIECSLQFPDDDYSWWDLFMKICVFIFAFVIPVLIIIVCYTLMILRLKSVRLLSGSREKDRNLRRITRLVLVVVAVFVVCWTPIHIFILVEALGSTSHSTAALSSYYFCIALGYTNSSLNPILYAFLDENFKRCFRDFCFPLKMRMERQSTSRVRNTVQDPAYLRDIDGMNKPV

[2] = biological target: T1, human kappa opioid receptor; assay: biochemical

Compound	Ki ([1]; read-out: Ki) [µM]	Efficacy [2] [%]	EC50 ([2]; read-out: EC50) [µM]	Ki [1] [µM]	EC50 [2] [µM]
2-epi-(N-methylacetamide)-salvinorin [Compound 80]	0.0165 ± 0.0011	106	0.021 ± 0.0009		
2-ethoxy-salvinorin B [Compound 15]	0.0079 ± 0.0003	103	0.0186 ± 0.0026		
CCO[C@H]1C[C@@H](C(=O)OC)[C@]2(C)CC[C@H]3C(=O)O[C@H](c4ccoc4)C[C@]3(C)C2C1=O (stereo partly shown) [Compound 15, 2-ethoxy-salvinorin B]				0.0079 ± 0.0003	0.0186 ± 0.0026
COC(=O)[C@@H]1C[C@@H](N(C)C(C)=O)C(=O)C2[C@@]1(C)CC[C@H]1C(=O)O[C@H](c3ccoc3)C[C@]21C (stereo partly drawn) [Compound 80, 2-epi-(N-methylacetamide)-salvinorin]				0.0165 ± 0.0011	0.021 ± 0.0007

Reference: US20070213394A1 (priority 2004, published 2007)
